Results published in patent publication US9833451B2 (priority 2007, dated 2017).

Experiments:
[1] = cited from earlier work
[2] = tested on: migraine pain in subjects; assay: Relief from migraine pain after inhaled DHE (FIG. 1); format: in vivo, human; conditions: 0.88 mg and 0.44 mg DHE inhaled

SMILES: CN1C[C@H](C(=O)N[C@]2(C)O[C@@]3(O)[C@@H]4CCCN4C(=O)[C@H](Cc4ccccc4)N3C2=O)C[C@@H]2c3cccc4[nH]cc(c34)C[C@H]21 [DHE, dihydroergotamine mesylate]
- onset of therapeutic efficacy ([1]; intranasal): 45 min
- onset of therapeutic efficacy ([1]; oral or sublingual delivery): 120 min
- time to therapeutic efficacy [2]: ≤ 30 min

Counter-ions that a name gives are not always drawn. Like-named read-outs stand apart in the source and are kept apart here.
